Test results from US20260384421A1, “NOVEL COMPOUNDS THAT CAN BE USED AS THERAPEUTIC AGENTS” (published 2026).

What was measured:
[1] = system: AMPK (Thr172 phosphorylation) in A-549 cells; assay: AMPK activation assay on A-549 cells (Thr172 phosphorylation, western blot); settings: 10 nM, 20 hours, Thr172 phosphorylation relative to DMSO control
Protocol: (§1) AMPK activation can be assessed by the levels of AMPK phosphorylation at Thr172. The APMK activating activities of compounds falling under general formula (I) were investigated by western blotting on different cancer cell lines. Access and cultivation of the respective cell lines are as described above. To this end, A-549, HEP-G2, and HCT-116 cells were seeded into 6-well culture plates (Cyto-One®, #CC7682-7506) in a total volume of 2 mL at a density to achieve 80% confluency by 48 hours and incubated over night at 37 °C and 5% CO2. Cells were treated at a confluency of around 50% with compounds at indicated final concentration by adding 2 μL per well of a 1000× compound DMSO stock-solution. Cells were incubated for 20 hours at 37 °C and 5% CO2. Then, cells were lysed in RIPA buffer (Pierce™ RIPA Buffer, FisherScientific, #89900) supplemented with 1× cOmplete™ Mini Protease Inhibitor Cocktail (Roche, #11836153001) and 1 mM Sodium Orthovanadate (Na3VO3, FisherScientific, #J60191) and lysates were subjected to standard western blotting procedure. Protein concentration of the samples was determined by BCA assay and samples were normalized to achieve equal protein concentration. 4× Laemmli Sample Buffer (Bio-Rad, #1610747) was supplemented with 200 μM DTT (Sigma Aldrich-Merck, #D9779) and added to the samples to achieve a final concentration of 1× Laemmli/50 μM DTT by diluting lysate samples with supplemented Laemmli buffer 1:4. Samples were then incubated at 95 °C for 5 min in a Thermomixer (Eppendorf). SDS-PAGE was performed in 1× Tris/Glycine/SDS buffer (TGS, Bio-Rad, #1610772) using 4-15% gradient polyacrylamide gels (4-15% Mini-PROTEAN® TGX Stain-Free™ Gel, Bio-Rad, #456-8084). Proteins were transferred onto 0.2 μm PVDF membranes using the semi-dry Trans-Blot® Turbo™ transfer system (Trans-Blot® Turbo™, Bio-Rad, #170-4150) with prepacked Trans-Blot® Turbo™ transfer packs (Bio-Rad, #170-4156). Immunodetection of AMPK, pAMPK (Thr172), and β-Actin was performed using the following primary antibodies: AMPKα (F6) Mouse mAb (Cell Signaling Technologies, #2793) for AMPK, Phospho-AMPKα (Thr172) (40H9) Rabbit mAb (Cell Signaling Technologies, #2535) for pAMPK (Thr172), and Purified anti-β-actin Antibody (Rat monoclonal, W16197A) (Cell Signaling Technologies, #664802) for β-Actin. HRP-linked secondary antibodies in 5% nonfat dried milk (AppliChem, #A0830) in 1×TBS containing 0.1% Tween-20 were used for the corresponding species mouse, rabbit and rat (Cell Signaling Technologies, #7076, #7074, #7077), respectively. Signals were developed with chemiluminescence substrate (SuperSignal™ West Pico PLUS, Fisher Scientific, #34577) and detected with the ChemiDoc™ MP imaging system (ChemiDoc™ MP, Bio-Rad, #12003154). Chemiluminescence signals of phosphorylation, total protein and loading control were quantified by densitometry using the image analysis software Image Lab™ (version 6.0.1, Bio-Rad). The corresponding lysates from DMSO treated cells were included on each membrane as the base line control for blot-internal signal normalization. The standard deviation of signal intensities of the loading control-Actin within each blot was 16% or lower confirming equal loading of protein amounts.
(§2) For each condition, the ratio of phosphorylation to corresponding total protein was calculated from the signal intensities. The ratios were then normalized to the corresponding ratio of the DMSO control to yield the fold-change values of phosphorylation.
(§3) In the following embodiments, a compound is considered as an AMPK activator if the fold-change value of phosphorylation is 1.5 or higher, preferably 2.0 or higher, and more preferably 2.5 or higher as determined with the method described above.

[2] = system: AMPK (Thr172 phosphorylation) in HEP-G2 cells; assay: AMPK activation assay on HEP-G2 cells (Thr172 phosphorylation, western blot); settings: 10 nM, 20 hours, Thr172 phosphorylation relative to DMSO control
Protocol: as §1, §2, §3

COc1ccc(CN2CCN(C(=O)c3ccc(Oc4ccc(C5CCC(OC)CC5)cc4)cc3)CC2)cc1 (centres unmarked)
Fold-change AMPK activation [1]: ≥2.5

COc1ccc(CN2CCN(C(=O)c3ccc(Oc4ccc(C5CCC(OC)CC5)cc4CO)cc3)CC2)cc1 (centres unmarked)
Fold-change AMPK activation [2]: ≥2.0

O=Cc1cc(C2CCC3(CC2)SCCCS3)ccc1Oc1ccc(C(=O)N2CCN(Cc3ccc(Cl)cc3)CC2)nc1
Fold-change AMPK activation [1]: ≥2.5

COC1CCC(c2ccc(Oc3ccc(C(=O)N4CCN(Cc5ccc(C(F)(F)F)cc5)CC4)nc3)c(CO)c2)CC1 (centres unmarked)
Fold-change AMPK activation [1]: ≥2.5

COC1CCC(c2ccc(Oc3ccc(C(=O)N4CCN(Cc5cnc6ccccc6c5)CC4)nc3)c(CO)c2)CC1 (centres unmarked)
Fold-change AMPK activation [1]: ≥2.5

COC1CCC(c2ccc(Oc3ccc(C(=O)N4CCN(Cc5ccc(Cl)cn5)CC4)cc3)c(CO)c2)CC1 (centres unmarked)
Fold-change AMPK activation [1]: ≥2.5

O=C(c1ccc(Oc2ccc(C3CCC4(CC3)OCCO4)cc2CO)cc1)N1CCN(Cc2ccc3ccccc3c2)CC1
Fold-change AMPK activation [2]: ≥2.0

O=C(c1ccc(Oc2ccc(C3CCCCC3)cc2CO)cn1)N1CCN(Cc2ccc(OC(F)(F)F)cc2)CC1
Fold-change AMPK activation [2]: ≥2.5

COC1CCC(c2ccc(Oc3ccc(C(=O)N4CCN(Cc5ccccc5)CC4)nc3)c(CO)c2)CC1 (centres unmarked)
Fold-change AMPK activation [2]: ≥2.5

COc1ccc(CN2CCN(C(=O)c3ccc(Oc4ccc(C5CCC(OC)CC5)cc4CO)cn3)CC2)cc1 (centres unmarked)
Fold-change AMPK activation [2]: ≥1.5

O=C(c1ccc(Oc2ccc(C3CCCCC3)cc2CO)cc1)N1CCN(Cc2ccc(OC(F)(F)F)cc2)CC1
Fold-change AMPK activation [1]: ≥2.5

O=C(c1ccc(Oc2ccc(C3CCCCC3)cc2CO)cc1)N1CCN(Cc2ccc(Cl)cc2)CC1
Fold-change AMPK activation [2]: ≥1.5

COc1ccc(CN2CCN(C(=O)c3ccc(Oc4ccc(C5CCCCC5)cc4CO)cc3)CC2)cc1
Fold-change AMPK activation [2]: ≥1.5

COC1CCC(c2ccc(Oc3ccc(C(=O)N4CCN(Cc5ccc(Cl)cc5)CC4)cc3)c(CO)c2)CC1 (centres unmarked)
Fold-change AMPK activation [2]: ≥2.5

O=C(c1ccc(Oc2ccc(C3CCC4(CC3)SCCCS4)cc2CO)cn1)N1CCN(Cc2ccc(Cl)cc2)CC1
Fold-change AMPK activation [1]: ≥2.5

COc1cc(C2CCC(OC)CC2)ccc1Oc1ccc(C(=O)N2CCN(Cc3ccc(Cl)cc3)CC2)cc1 (centres unmarked)
Fold-change AMPK activation [1]: ≥2.5

COc1ccc(CN2CCN(C(=O)c3ccc(Oc4ccc(C5CCC(OC)CC5)cc4O)cn3)CC2)cc1 (centres unmarked)
Fold-change AMPK activation [1]: ≥2.5
